In experiment [1] the target is T1, human pancreatic lipase (hPL) (Homo sapiens, UniProt P16233).
T1 sequence (P16233 17-465): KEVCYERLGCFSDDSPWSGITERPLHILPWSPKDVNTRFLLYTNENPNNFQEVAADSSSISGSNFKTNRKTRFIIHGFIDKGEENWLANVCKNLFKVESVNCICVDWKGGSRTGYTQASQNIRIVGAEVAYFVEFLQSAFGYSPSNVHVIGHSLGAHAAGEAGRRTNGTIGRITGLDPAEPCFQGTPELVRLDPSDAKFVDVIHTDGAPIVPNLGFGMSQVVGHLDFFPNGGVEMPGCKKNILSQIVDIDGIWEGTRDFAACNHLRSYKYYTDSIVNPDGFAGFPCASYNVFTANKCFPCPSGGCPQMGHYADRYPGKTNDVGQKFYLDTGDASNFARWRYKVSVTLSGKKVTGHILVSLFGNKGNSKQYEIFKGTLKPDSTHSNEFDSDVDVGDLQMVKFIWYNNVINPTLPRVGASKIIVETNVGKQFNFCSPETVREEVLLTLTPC
Description: fluorescence-based hPL inhibition assay. The format is biochemical. Conditions: hPL-catalyzed 4-MUO hydrolysis; 4-MUO 5 μM, 37 °C, 20 min.

For experiment [2], the target named is T1, human pancreatic lipase (hPL). Description: inhibition kinetics against hPL-catalyzed 4-MUO hydrolysis. The format is biochemical. The settings on record: read-out: inhibition constant (Ki).

This is an account of results in paper PMC9463489 (Journal of Pharmaceutical Analysis, 2022).

Several values for one entry are separate records, joined by “and”; a condition that tells them apart may be missing. Identical values can stand only once. A value given as a limit tells only on which side of the number the result lay.

Take catechin gallate [CG]: the negative logarithm of the IC50 (pIC50) – broadly, the negative decadic logarithm of the IC50, by convention in mol/L – in experiment [1] is recorded as 7.68 ± 0.23. In addition, the Ki (commonly the dissociation constant of the complex between target and ligand, obtained from inhibition or displacement) in experiment [2] is 82 nM and < 100 nM.
Turning to rhodiosin, the negative-log IC50 (pIC50) in experiment [1] is reported as <4.
